Usually Ki stands for the equilibrium dissociation constant of an inhibitor or competing ligand from its target. Read a high Ki as lower affinity.

Protein sequences, listed by entry. Tags and fused reporters are not part of them.
UniProt P10415, whole entry: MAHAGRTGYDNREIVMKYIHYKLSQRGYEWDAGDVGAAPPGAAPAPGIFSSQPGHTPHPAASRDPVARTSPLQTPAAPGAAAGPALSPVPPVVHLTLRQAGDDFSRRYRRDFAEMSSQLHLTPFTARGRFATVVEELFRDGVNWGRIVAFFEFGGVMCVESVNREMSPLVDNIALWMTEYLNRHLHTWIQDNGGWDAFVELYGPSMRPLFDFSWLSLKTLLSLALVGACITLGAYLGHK

Experimental findings from US9303025B2, “Apoptosis-inducing agents for the treatment of cancer and immune and autoimmune diseases” (AbbVie Inc., priority 2008, dated 2016) are described below.

This test concerns the target GST-Bcl-2 (Homo sapiens (Human), UniProt P10415). Briefly: Time Resolved-Fluorescence Resonance Energy Transfer (TR-FRET) Bcl-2 binding assay. The following applies: GST-Bcl-2 1 nM, F-Bak peptide probe 100 nM, Tb-anti-GST antibody 1 nM; 3 hours at room temperature; Ki by Wang's equation. (In general: In TR-FRET formats the signal depends on donor and acceptor labels being close together.)

The substance “2-(3-chlorophenoxy)-4-(4-{[2-(4-chlorophenyl)-4,4-dimethylcyclohex-1-en-1-yl]methyl}piperazin-1-yl)-N-{[4-{1-[2-(2-methoxyethoxyl)ethyl]piperidin-4-yl}amino)-3-nitrophenyl]sulfonyl}benzamide [Example 170]” displayed a Ki of 0.036 nM.
